Here are results for three compounds from ChEMBL document CHEMBL4359846, “Design, synthesis, and antifibrosis evaluation of 4-(benzo-[c][1,2,5]thiadiazol-5-yl)-3(5)-(6-methyl- pyridin-2-yl)pyrazole and 3(5)-(6-methylpyridin- 2-yl)-4-(thieno-[3,2,-c]pyridin-2-yl)pyrazole derivatives” (Eur J Med Chem, 2019).

The target of assay [1] is T1, TGF-beta receptor type-1 (Homo sapiens) (UniProt P36897).
T1 sequence (whole entry): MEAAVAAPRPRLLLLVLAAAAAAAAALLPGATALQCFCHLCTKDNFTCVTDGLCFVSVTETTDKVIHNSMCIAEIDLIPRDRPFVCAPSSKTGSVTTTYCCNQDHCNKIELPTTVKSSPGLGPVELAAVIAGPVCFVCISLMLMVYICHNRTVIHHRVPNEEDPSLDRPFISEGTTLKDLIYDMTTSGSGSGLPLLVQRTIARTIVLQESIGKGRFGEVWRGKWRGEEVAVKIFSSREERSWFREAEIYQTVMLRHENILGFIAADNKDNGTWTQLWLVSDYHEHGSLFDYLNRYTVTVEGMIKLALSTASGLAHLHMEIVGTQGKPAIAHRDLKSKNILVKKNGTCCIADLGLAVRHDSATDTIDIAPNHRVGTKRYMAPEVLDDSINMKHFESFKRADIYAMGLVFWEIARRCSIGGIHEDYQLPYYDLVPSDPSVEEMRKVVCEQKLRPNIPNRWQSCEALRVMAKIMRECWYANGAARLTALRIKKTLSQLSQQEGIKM
To be noted: 1.25 to 5 uM.

Assay [2] deals with T1, TGF-beta receptor type-1 (Homo sapiens). The note with it: 1.25 to 5 uM. The source holds these as a separate data set.
The target is the same in assay [3]. The note with it: 1.25 to 5 uM. This is another data set of the same source.
Assay [4] shares this target. To be noted: 1.25 to 5 uM. The source holds these as a separate data set.
Assay [5] has the same target. To be noted: 5 uM.
Assay [6] shares this target. The note with it: 5 uM. This is another data set of the same source.
The target is the same in assay [7]. Description: Inhibition of human recombinant GST-tagged ALK5 expressed in Sf9 insect cells at 10 uM using casein as substrate incubated for 60 mins in presence of [33P]-ATP by radiometric assay relative to control.

The structures appear in SMILES notation. The source made the active and inactive calls. No cut-off for these calls is given here.

On to `Cc1cccc(-c2nn(CC(=S)Nc3cccc(F)c3)cc2-c2ccc3nsnc3c2)n1`, for which the inhibition result in assay [1], in assay [2], in assay [3] and in assay [4] was “Active” throughout.

Regarding `Cc1cccc(-c2nn3c(c2-c2ccnc4ccc(C(N)=O)cc24)CCC3)n1`, the inhibition entry in assay [5] and in assay [6] was “Active” in each case.

As to `Cc1cccc(-c2nn(CC(=O)Nc3ccccc3)cc2-c2cc3cnccc3s2)n1`, the inhibition entry in assay [1], in assay [2], in assay [3] and in assay [4] was “Active” throughout. In assay [7], the inhibition – broadly, the drop in the measured response relative to a control, in per cent – was 98 to 100%.
